{"source": "patent US12551434B2", "about": "“Zwitterionic polymer particle compositions and related methods” (WAYNE STATE UNIVERSITY, priority 2020, dated 2026)", "type": "in vitro ADME, porcine", "experimental": "Tracking nanoparticle diffusion in mucus. Nanoparticle diffusion behavior in mucus was studied by modifying methods as described in Lai, S. K. et al. P Natl Acad Sci USA 104, 1482-1487 (2007) and Olmsted, S. S. et al. Biophys J 81, 1930-1937 (2001). Mucus was reconstituted by dissolving porcine stomach mucin in phosphate buffered saline (PBS) at 30 mg/ml. Nanogels were added into 100 μl mucus to reach a final concentration of 3% vol/vol (final particle concentration, 8.25×10^−7 wt/vol) and incubated for 1 h on a Nunc™ glass bottom dish (0.17 mm thickness for the inside bottom glass) before observation. Movies were captured with 64×oil-immersion objective in a spinning disc confocal microscope (Yokogawa CSU-X1M 5000 microlens, Zeiss LSM 800). For each nanogel sample, trajectories of n=50 particles were analyzed, and three samples were examined for each type of nanogel. MSD was calculated with the equation of MSD=<|r(t)-r(0)|^2> at a temporal resolution of 200 ms for 20 s.", "data": [{"substance": "poly(3-[[2-(methacryloyloxy)ethyl]dimethylammonio]propionate) [zwitterionic PCB particle]", "values": [{"measurement": "MSD relative to anionic and cationic particles", "value": "≥ 100", "unit": "times"}, {"measurement": "ensemble-averaged geometric mean square displacement (MSD) relative to the PEG particle", "value": "about 6.7 times"}]}]}
